4 compounds from ChEMBL document CHEMBL1121425, “4-Amino-4-arylcyclohexanones and their derivatives, a novel class of analgesics. 1. Modification of the aryl ring” (1980) can be followed below.

The species entered for experiment [1] is Mus musculus. In words: Tested for analgesic activity using tail flick assay in mice. A general note: Hot-plate and tail-flick tests time the reaction to a heat stimulus.
For experiment [2], the species on record is Mus musculus. In words: Tested for analgesic activity using tail pinch assay in mice.
Experiment [3] is filed under the species Mus musculus. In words: Tested for analgesic activity using HCl writhe assay in mice in mice.
The species entered for experiment [4] is Mus musculus. In words: Tested for sedation using inclined screen test in mice.
Experiment [5] relates to Mus musculus. In words: Tested for narcotic antagonistic property using tail-flick procedure in mice after giving subcutaneous dose of 6.3 mg/kg of morphine sulphate.

As a reminder, the ED50 is the dose at which the effect has come halfway, by size or by number of responders. Higher therefore signals weaker potency. Turning to `CN(C)C1(c2ccccc2)CCC(=O)CC1`, the ED50 in experiment [1] is 71 mg/kg; in experiment [2], 66 mg/kg; in experiment [3], 44 mg/kg.
In the case of `CN(C)C1(c2ccc(Cl)c(Cl)c2)CCC(=O)CC1`, the results for the ED50 in experiment [1], in experiment [2] and in experiment [3] were 63 mg/kg, 63 mg/kg and more than 100 mg/kg, respectively.
As to `CN(C)C1(c2ccc(Br)cc2)CCC(=O)CC1`, the ED50 in experiment [4] and in experiment [5] was more than 100 mg/kg in each case.
On to `COc1ccc(C2(N(C)C)CCC(=O)CC2)cc1`, for which the results for the 50% effective dose (ED50) in experiment [1], in experiment [2] and in experiment [3] were 19 mg/kg, 20 mg/kg and 19 mg/kg, respectively.
